Measurements reported in patent US6905839B2, “In vivo phenotyping for human cytochrome P450 3A activity” (priority 2002, dated 2005).

Test system: CYP3A
Settings: male, human, in vivo
Method: The subject was not receiving any medication. […] Urine samples were obtained at a timed period (0-2, 2-4, 4-6, 6-8, 8-10, and 10-12) and the volume of the urine samples was noted. The recommended frequency of blood sampling is at least one time during a 2-hour urine collection. Urinary concentrations of cortisol and 6β-hydroxycortisol and plasma concentrations of cortisol were determined by HPLC and GC-MS, respectively. “The endogenous metabolic clearance (CLm(6β)-endo)” was calculated by Equation 4.
c) The fractional metabolic clearance for the 6β-hydroxylation of endogenous cortisol (CLm(6β)) is expressed as the amount of urinary excreted 6β-hydroxycortisol (X(6β)) divided by the area under the concentration-time curve of cortisol (AUC(F)); that is, CLm(6β)=X(6β)/AUC(F).

CLm(6β)-endo values during treatment (daily means): 1.46 to 1.74 mL/min
Structure (SMILES): CC[C@H]1OC(=O)[C@H](C)[C@@H](O[C@H]2C[C@@](C)(OC)[C@@H](O)[C@H](C)O2)[C@H](C)[C@@H](O[C@@H]2O[C@H](C)C[C@H](N(C)C)[C@H]2O)[C@](C)(OC)C[C@@H](C)C(=O)[C@H](C)[C@@H](O)[C@]1(C)O [clarithromycin]
